Measured values: PMC3539664, “Convergent synthesis and evaluation of ^18F-labeled azulenic COX2 probes for cancer imaging” (Frontiers in Oncology, 2013)

Biological target: T1, ovine COX2 (Ovis aries, UniProt P79208)
T1 construct: purchased Cayman
T1 sequence (P79208 17-603): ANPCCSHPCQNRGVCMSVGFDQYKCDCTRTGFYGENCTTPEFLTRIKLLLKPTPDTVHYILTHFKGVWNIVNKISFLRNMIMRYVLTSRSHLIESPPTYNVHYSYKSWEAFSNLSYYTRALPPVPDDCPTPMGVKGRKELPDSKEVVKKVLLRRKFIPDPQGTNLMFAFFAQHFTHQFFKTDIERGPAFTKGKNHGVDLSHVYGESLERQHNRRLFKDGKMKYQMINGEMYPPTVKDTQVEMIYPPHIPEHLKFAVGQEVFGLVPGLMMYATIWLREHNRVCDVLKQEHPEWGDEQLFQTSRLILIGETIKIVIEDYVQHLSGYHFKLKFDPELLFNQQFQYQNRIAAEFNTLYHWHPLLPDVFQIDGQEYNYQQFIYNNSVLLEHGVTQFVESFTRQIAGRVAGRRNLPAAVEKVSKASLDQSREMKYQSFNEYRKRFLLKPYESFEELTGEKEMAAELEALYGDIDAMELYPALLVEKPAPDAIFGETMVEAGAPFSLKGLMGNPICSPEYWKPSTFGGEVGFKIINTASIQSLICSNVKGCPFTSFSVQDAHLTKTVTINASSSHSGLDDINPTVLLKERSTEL
Test: Colorimetric COX inhibitor screening assay (Cayman kit), IC50 assay
Format: biochemical
Details: 10 duplicate concentrations (Figure 2)

Hill slope of the inhibition curve: -1.0
Structure (SMILES): CS(=O)(=O)c1ccc(-c2cc(Br)sc2-c2ccc(F)cc2)cc1 [DuP697]
